Our source for the IC50 values is EP4772509A1, “KINESIN KIF18A INHIBITOR, AND APPLICATION THEREOF” (Shanghai Apeiron Therapeutics Company Limited, priority 2023, dated 2025).

Molecules are shown by their SMILES.

In the assay the target is T1, Human KIF18A (amino acid sequence 1-417) (Homo sapiens, UniProt Q8NI77).
T1 construct: purchased Viva Biotech (Shanghai) Ltd
T1 sequence (Q8NI77 1-417): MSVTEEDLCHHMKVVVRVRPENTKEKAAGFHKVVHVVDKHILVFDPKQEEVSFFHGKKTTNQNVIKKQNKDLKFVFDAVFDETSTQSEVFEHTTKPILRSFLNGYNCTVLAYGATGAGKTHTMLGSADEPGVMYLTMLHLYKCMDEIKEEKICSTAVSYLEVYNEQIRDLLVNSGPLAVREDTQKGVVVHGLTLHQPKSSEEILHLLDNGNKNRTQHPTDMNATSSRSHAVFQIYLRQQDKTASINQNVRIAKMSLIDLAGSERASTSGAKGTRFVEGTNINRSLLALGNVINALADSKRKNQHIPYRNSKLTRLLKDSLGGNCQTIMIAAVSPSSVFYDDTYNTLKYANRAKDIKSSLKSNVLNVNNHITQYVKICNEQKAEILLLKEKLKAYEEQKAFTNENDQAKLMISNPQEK
Briefly: Enzymatic activity test (ADP-Glo, microtubule-stimulated ATPase). The following applies: KIF18A IC50 nM, 60 µg/mL microtubules, 25 µM ATP, 2.5 nM KIF18A protein, 120 min at ambient temperature, chemiluminescence. The assay is classed as biochemical. The procedure:
Materials: Human KIF18A (amino acid sequence 1-417) was purchased from Viva Biotech (Shanghai) Ltd.; the ADP-Glo™ protein kinase kit was acquired from Promega, USA; tubulin was sourced from Cytoskeleton, USA; and the 384-well assay plate and Envision multifunctional microplate reader were obtained from PerkinElmer, USA.
Enzymatic Activity Test: The compound powder was dissolved in DMSO to prepare a stock solution of 10 mM. Then gradient dilution was performed for the compounds in the microplate to achieve a final concentration of 0-10 µM. Then, 2.5 µL each of tubulin, compound, ATP, and KIF18A protein were added to the microplate in sequence for reaction at ambient temperature for 120 min. The final concentrations in the enzyme reaction were 60 µg/mL for microtubules, 25 µM for ATP, and 2.5 nM for KIF18A protein. After the enzyme reaction, 10 µL of ADP-GLO reaction reagent was added to each well and incubated at room temperature for 30 min. After that, 20 µL of detection reagent was added to each well and incubated at room temperature for 30 min in the dark. Finally, chemiluminescence detection was performed using the PerkinElmer Envision.

As to `Cc1cc2nc(n1)N1CCC(F)(F)C(/C=C/CC3CCN(CC3)c3cc(NS(=O)(=O)CCO)c(C(=O)N(C)C)cc3-n3cc-2nn3)C1` (stereo not shown) [Example 93, (3^4Z,7E)-1^4,1^4-difluoro-4^4-((2-hydroxyethyl)sulfonamido)-2^6-methyl-3^1H-2(2,4)-pyrimidin-1(1,3),5(1,4)-dipiperidin-3(4,1)-triazole-4(1,2)-benzocyclooct-7-en-4^5carboxamide], it took 45 nM to reach half-maximal inhibition (IC50). In other words, the double-digit nanomolar range.
